Screens from PubChem BioAssay.
In the library only some 2.8% were active in any assay of this set; here they are far more common.
miR122 inh: blocks miR-122 activity in Huh7 sensor cells | Huh7 miR-122 Renilla luciferase sensor, 48 h; neutral wells = 0, positive control = 100 | activation (reporter increase), % at 12.5 µM | 0.3% of 340,000 active;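 active = mean replicate activation score at least 90 and every replicate individually at or above 90; inconclusive = only one of the two criteria met; inactive = neither criterion met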;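 also: higher luciferase means less miR-122 activity so hits act as miR-122 inhibitors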
MITF act: increases MITF-driven TRPM1 promoter luciferase signal; SK-MEL-5 TRPM1-promoter luciferase, 24 h; % of positive control, neutral wells = 0; activation, % at 12.5 µM; 0.75% of 300,000 active;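 active = mean activation of at least 80% with every replicate also reaching 80%; inconclusive = mean reaches 80% but some replicate falls short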
PglD DTNB: inhibitors of Campylobacter jejuni PglD acetyltransferase. inhibition, % at 12.5 µM. 0.098% of 360,000 active. purified PglD enzyme, DTNB colorimetric CoA detection; in the data active = inhibition above about 16%, passing the limit was not always enough; inconclusive = no clear call, values can overlap the other calls
Wnt bcat act: Wnt/beta-catenin pathway activation. AID 743398. activation, % at 9.35 µM. Wnt/beta-catenin reporter cell assay, activator, plate reader. 1.2% of 300,000 active; in the data active = activation above about 30%, passing the limit was not always enough; inconclusive = no clear call, values can overlap the other calls
esBAF inh: blocks esBAF chromatin remodeling in mouse ES cells; AID 602393; 2% of 350,000 active; reporter increase, % at 12.5 µM; Bmi1-luciferase knock-in reporter, 24 h; 100% = twice the neutral-well signal; in the data active = activation above about 40%; inconclusive = no clear call, values can overlap the other calls;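 also: a rise in the Bmi1 reporter signal indicates esBAF inhibition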
Yeast UUG start: modulators of start codon recognition fidelity in yeast; AID 602363; activity score, % at 18.7 µM; S. cerevisiae UUG-firefly luciferase reporter, luminescence/redox ratio; 0.13% of 350,000 active;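 active = replicate mean at a twofold rise or more, about +100% in these data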;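 note: firefly luciferase made from a UUG start codon reports start codon fidelity; reporter light over untreated wells divided by growth signal over untreated wells; some hits fall short of that in this replicate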
Of the large screens only hits and unclear results are named; the others gave an inactive call; ! = a repeat was not active.

Cc1ccsc1C(=O)N1CCc2ccccc2C1	none
Cc1ccsc1C(=O)OCC(=O)N1CCc2ccccc2C1	MITF act 92, esBAF inh 57
O=C(OCC(=O)N1CCc2ccccc2C1)c1c(F)cccc1Cl	MITF act 115, Wnt bcat act 55
O=C([C@H]1[C@H](CO)[C@H]2Cn3c(ccc(C4=CCCCC4)c3=O)[C@@H]1N2Cc1nccs1)N1CCCCC1	none (no result: miR122 inh, MITF act, Wnt bcat act, Yeast UUG start)
CO[C@@H]1CN(C)C(=O)c2cc(NS(C)(=O)=O)ccc2OC[C@H](C)N(C(=O)C2CCCCC2)C[C@@H]1C	none (no result: MITF act, Wnt bcat act)
CCOC(=O)C(CC(=O)c1ccccc1)CC(=O)c1ccccc1	MITF act 87, esBAF inh 57 (no result: miR122 inh)
CCOC(=O)C(CCC(C)=O)C(=O)c1ccccc1 (stereo unspecified)	none
COC(=O)C(CC(=O)c1ccccc1)CC(=O)c1ccccc1	esBAF inh 53
COc1ccccc1C(CC(=O)c1ccccc1)CC(=O)c1ccccc1	none (no result: PglD DTNB, Yeast UUG start)
O=C(C[C@H]1CC[C@@H]2[C@H](COC[C@@H](O)CN2Cc2ccccc2)O1)NCCc1ccccc1	none (no result: MITF act, Wnt bcat act, Yeast UUG start)
COc1ccc(N=C(C)C2=C(O)c3ccccc3C2=O)cc1	Wnt bcat act 58 (no result: esBAF inh)
CCOc1ccc(N=C(C)C2=C(O)c3ccccc3C2=O)cc1	Wnt bcat act 39 (no result: miR122 inh, MITF act, PglD DTNB, esBAF inh, Yeast UUG start)
CC(=NC1CC1)C1=C(O)c2ccccc2C1=O	MITF act 98
Cc1ccc(-c2ccc3c(c2)O[C@@H](CN(C)C(=O)Nc2ccc(F)cc2)[C@H](C)CN([C@@H](C)CO)S3(=O)=O)cc1	none (no result: MITF act, Wnt bcat act)
Fc1cccc(Cn2cc(C(=S)N3CCCCC3)c3ccccc32)c1	none
Fc1cccc(Cn2cc(C(=S)N3CCOCC3)c3ccccc32)c1	miR122 inh 176 (no result: PglD DTNB, Yeast UUG start)
N=c1cc(C2(O)CCCCC2)n2c(nc3ccccc32)s1	Wnt bcat act 45 (no result: MITF act, esBAF inh)
COc1ccc(S(=O)(=O)Nc2ccccc2C(F)(F)F)cc1	none (no result: Wnt bcat act)
COc1ccc(OC)c(S(=O)(=O)Nc2ccccc2C(F)(F)F)c1	miR122 inh 116 (no result: MITF act)
CCC(=O)N1CC[C@H]2[C@H](CO)Nc3ccc(-c4ccc(F)cc4)cc3[C@H]21	none (no result: MITF act, Wnt bcat act)
O=C(Nc1ccc(F)c(Cl)c1)c1csc([C@H]2C[C@H](O)[C@@H](CO)O2)n1	Wnt bcat act 40, esBAF inh 88 (no result: MITF act)
O=C(Nc1ccc(F)c(Cl)c1)c1ccc2sc([C@H]3C[C@H](O)[C@@H](CO)O3)nc2c1	esBAF inh 62 (no result: MITF act)
O=C(Nc1ccc(F)c(Cl)c1)c1csc(COCCO)n1	esBAF inh 51 (no result: MITF act)
O=C(Nc1cccc(Cl)c1)c1csc([C@@H]2C[C@H](O)[C@@H](CO)O2)n1	none (no result: MITF act)
O=C(Nc1ccc(F)c(Cl)c1)c1csc([C@@H]2C[C@H](O)[C@@H](CO)O2)n1	esBAF inh 43 (no result: miR122 inh, MITF act)
O=C(Nc1ccccc1)N1C[C@@H]2[C@H](c3ccccc31)[C@@H](CO)N2Cc1ccccc1	none (no result: MITF act, Wnt bcat act)
CS(=O)(=O)N1CCN(c2ccc([N+](=O)[O-])c(NCc3ccccc3)c2)CC1	none
CCS(=O)(=O)N1CCN(c2ccc([N+](=O)[O-])c(NCc3ccccc3)c2)CC1	Yeast UUG start 240 (no result: MITF act, Wnt bcat act)
COc1ccc(NC(=O)Nc2ccc3c(c2)C(=O)N([C@H](C)CO)C[C@H](C)[C@@H](CN(C)C(=O)Nc2ccccc2)OCCCC[C@@H](C)O3)cc1	none (no result: MITF act, Wnt bcat act)
c1ccc(N=Nc2ccc(C3=NCCO3)cc2)cc1	Wnt bcat act 44 (no result: MITF act, PglD DTNB)
CC(=O)Nc1nc(C)c(-c2csc(Nc3ccccn3)n2)s1	Wnt bcat act 52! (no result: miR122 inh, PglD DTNB, esBAF inh, Yeast UUG start)
CC(=O)Oc1ccc(-c2csc(Nc3ccccn3)n2)cc1	Wnt bcat act 61 (no result: MITF act)
CC(=O)Nc1ccc(Nc2nc(-c3sc(NC(C)=O)nc3C)cs2)cc1	none (no result: MITF act)
c1csc(-c2csc(-c3cccs3)n2)c1	esBAF inh 53 (no result: MITF act)
COc1ccc(-c2csc(Nc3cccc(C)n3)n2)cc1C	Wnt bcat act 37, esBAF inh 45 (no result: MITF act)
C[C@@H]1CN([C@H](C)CO)S(=O)(=O)c2ccc(Br)cc2O[C@H]1CN(C)S(=O)(=O)c1ccccc1	none (no result: MITF act, Wnt bcat act)
Cc1cccc(Nc2nc(-c3cccs3)cs2)n1	esBAF inh 50
Oc1ccc(-c2csc(Nc3ccccn3)n2)c(O)c1	esBAF inh 80 (no result: MITF act)
c1ccc(Nc2nc(-c3cccs3)cs2)nc1	none (no result: MITF act)
CC(=O)Oc1ccc(-c2csc(Nc3cccc(C)n3)n2)cc1	esBAF inh 65 (no result: miR122 inh, MITF act)
Cc1cccnc1Nc1nc(-c2ccc(O)cc2O)cs1	none
C[C@H](NC(=O)C[C@@H]1CC[C@@H](NC(=O)C2CCC2)[C@@H](CO)O1)c1ccccc1	none (no result: miR122 inh, MITF act, Wnt bcat act)
COc1ccc(-c2noc(N3CCCC(C(=O)Nc4ccc(C(C)=O)cc4)C3)n2)cc1 (stereo unspecified)	esBAF inh 48
COc1ccc(NC(=O)C2CCN(c3nc(-c4ccc(OC)cc4)no3)CC2)cc1	none (no result: MITF act)
COc1ccc(-c2ccc([C@@H]3[C@H](CO)N4CCCCN(C(=O)NC(C)C)C[C@@H]34)cc2)cc1	none (no result: MITF act, Wnt bcat act)
CCN(CC(=O)Nc1c(F)cccc1F)C(=O)CNC(=O)c1cccs1	Wnt bcat act 38
Cc1ccc(-c2nnc(-c3cccc(Br)c3)o2)cc1	Wnt bcat act 52 (no result: esBAF inh)
Cc1ccc(-c2nnc(-c3ccccc3)o2)cc1Br	Wnt bcat act 35 (no result: esBAF inh)
CCC(=O)C1CCCN(C(=O)CCc2nnc(-c3ccc(C(C)=O)s3)o2)C1 (stereo unspecified)	esBAF inh 83
CC1CCCN(C(=O)CCc2nnc(-c3ccc4c(c3)OCO4)o2)C1 (stereo unspecified)	esBAF inh 42 (no result: miR122 inh)
C[C@H](O)C#Cc1cnc2c(c1)C(=O)N([C@@H](C)CO)C[C@@H](C)[C@@H](CN(C)C(=O)Nc1ccc(F)cc1)O2	none (no result: MITF act, Wnt bcat act)
Cc1c(C(=O)OC2CCCC2)[nH]c2c1C(=O)CC(c1ccco1)C2 (stereo unspecified)	miR122 inh inconclusive
COC(=O)C1C(=O)c2c([nH]c(C(=O)OC3CCCC3)c2C)CC1C (stereo unspecified)	MITF act 107, esBAF inh 76 (no result: Wnt bcat act)
COc1cccc(-c2ccc([C@H]3[C@@H](C#N)N(C(=O)Cc4ccccc4)[C@@H]3CO)cc2)c1	none (no result: miR122 inh, MITF act, Wnt bcat act)
Cc1cc(/C=C2/NC(=O)N(c3ccccc3)C2=O)c(C)n1-c1cccnc1	Wnt bcat act 37, esBAF inh 71
CCOC(=O)c1ccc2nc(C)c3c(c2c1)OC(C)C3 (stereo unspecified)	none (no result: Wnt bcat act)
CCOC(=O)c1ccc2nc3c(cc2c1)CCS3	esBAF inh 50 (no result: Wnt bcat act)
CC(=O)N(C)C[C@@H]1Oc2cc(C#CC3CC3)ccc2S(=O)(=O)N([C@H](C)CO)C[C@H]1C	none (no result: MITF act, PglD DTNB, Wnt bcat act)
COC(=O)c1ccc2c(=O)[nH]c(CSc3nc(-c4ccc(F)cc4)cs3)nc2c1	none (no result: miR122 inh, PglD DTNB, esBAF inh, Yeast UUG start)
COC(=O)c1ccc2c(=O)[nH]c(CSc3nc(C)cs3)nc2c1	Wnt bcat act 35
Cc1ccc(Nc2ncnc(-n3cccc3)n2)cc1Cl	Wnt bcat act 53 (no result: miR122 inh, PglD DTNB, esBAF inh, Yeast UUG start)
CCOc1ccc(NC(=O)c2cccc3ccccc23)cc1	esBAF inh 43 (no result: MITF act)
